One compound from patent US9902710B2, “Substituted 6, 7-dialkoxy-3-isoquinoline derivatives as inhibitors of phosphodiesterase 10 (PDE 10A)” (Allergan, Inc., priority 2013, dated 2018) can be followed below.

The target in this assay is PDE10A. Description: Diaxonhit phosphodiesterase assay (TR-FRET, LANCE cAMP kit), PDE10A. In kind it is biochemical. On the procedure: Diaxonhit Phosphodiesterase Assay (PDE10A and PDE4D3)
The PDE assay is based on the homogenous time-resolved fluorescence resonance energy transfer (TR-FRET) technology (LANCE® from Perkin Elmer). […] When there is PDE activity, resulting in the degradation of the cyclic nucleotide, the complex is not formed and a decrease in signal is observed.
The phosphodiesterase assay was developed using the LANCE® cAMP kit (PerkinElmer). The assay buffer contained HBSS with 5 mM HEPES, 0.1% BSA, and 1.5 mM MgCl2, pH 7.4. […] Chemical compounds were dissolved in DMSO (final concentration 2% (v/v)).
In a 384-well plate, 2 μL of the inhibitor and 3 μL PDE were added to the well, followed by the addition of 5 μl substrate biotinylated cAMP (1:5). After 60 min incubation at room temperature, 10 μL of assay detection mixture was added to the assay plate. After 1 h at room temperature, the signal was measured on EnVision™ (PerkinElmer).

In general, IC50 refers to the midpoint of a concentration-inhibition curve. Read a high IC50 as lower potency. Compound `COc1cc2cncc(Cc3ccc4oc(-c5ccc(C(=O)O)cc5)nc4c3)c2cc1OC` [Compound 146, 4-(5-((6,7-dimethoxyisoquinolin-4-yl)methyl)benzo[d]oxazol-2-yl)benzoic acid] had an IC50 of 4.7 nM.
